# Apparent affinities of Ab-14 variants for a coronavirus HR2 peptide

Target peptide (SARS-CoV-2 spike, HR2 region): PDVDLGDISGINAS

Parent scFv Ab-14: VH joined to VL by the linker GGGGSGGGGSGGGGS. Changes lie in the heavy chain CDRs alone.
VH: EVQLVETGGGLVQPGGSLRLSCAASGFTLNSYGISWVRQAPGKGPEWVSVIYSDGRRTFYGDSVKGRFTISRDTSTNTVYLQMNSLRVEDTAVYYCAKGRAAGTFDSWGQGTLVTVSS
VL: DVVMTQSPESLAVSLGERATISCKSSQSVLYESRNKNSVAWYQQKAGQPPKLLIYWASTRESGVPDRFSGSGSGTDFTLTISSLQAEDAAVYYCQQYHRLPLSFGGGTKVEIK

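Library AAYL49 holds single substitutions and randomly drawn double and triple substitutions in the CDRs. AlphaSeq pools MATa yeast showing the antibodies with MATalpha yeast showing the peptide. Pairs that bind mate more often; barcode pairs of the diploids are counted by sequencing. The ratio of observed to expected reads was calibrated, replicate by replicate, on BCL2-family standards whose Kd was known from biolayer interferometry. Each pool was mated in three replicate cultures.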

Positions count from residue 1 of the parent VH; Y32I puts I in place of Y.
Each Kd is an estimate from the mating assay, the geometric mean of the replicates in which the pair was seen; lower is stronger.
A pair that was not seen in any replicate is written "nd"; this usually means weak binding, but a binder can also be missed.
Nonspecific signal, from three strains lacking the peptide, appeared in 15% of pairings of library AAYL49, centred on 11 µM (5% of these signals below 680 nM); values are not corrected for it.

changes,Kd,detected
Y32I S53N V64G,2.5 µM,1 of 3
N30T T58Q,47 nM,3 of 3
Y32D S35G R56H,670 nM,1 of 3
F27V I34Y G61R,330 µM,1 of 3
Y32G V64D R100L,nd,0 of 3
G33Y R57N T58S,nd,0 of 3
Y52V S53L G103I,nd,0 of 3
D54E G55T V64G,nd,0 of 3
V50C G103Q T104W,59 µM,1 of 3
S31K D106Y S107K,nd,0 of 3
R56W D62Y A101Q,150 nM,3 of 3
Y60V A102V,nd,0 of 3
S53C F105K S107W,nd,0 of 3
V50H R56N T104F,nd,0 of 3
R57K G61R D106S,170 nM,3 of 3
G55A V64A F105T,69 µM,1 of 3
Y60P S63I G99F,nd,0 of 3
F27I V64G,nd,0 of 3
V50I D62H S107A,nd,0 of 3
Y32N F59V,320 nM,1 of 3
T28W T58D D106S,22 µM,1 of 3
Y60A G61C D62R,85 µM,1 of 3
I51F Y60L A102H,nd,0 of 3
D62F A102M,nd,0 of 3
L29V G61R A101Q,34 nM,3 of 3
L29G Y52L S63N,nd,0 of 3
S31D T58W S107I,42 nM,3 of 3
G26H F27T V50D,150 µM,1 of 3
R56L Y60C K65Y,30 µM,1 of 3
D54H D62N S107P,nd,0 of 3
I51W F59K,nd,0 of 3
L29P N30M T58P,nd,0 of 3
I34G G55P G103L,260 µM,2 of 3
F27W T58E G99L,300 nM,1 of 3
F27D S53L K65R,1.7 µM,3 of 3
G33E F59M Y60K,nd,0 of 3
F27S G61A A102P,19 nM,3 of 3
F27C T28P N30H,7.8 µM,1 of 3
S31T Y52G R56F,nd,0 of 3
G26A G33V T58L,nd,0 of 3
G55A R56T S107N,nd,0 of 3
G26Q V50L G99P,nd,0 of 3
G26C A101W D106A,1.7 µM,2 of 3
T28R G55D A101W,nd,0 of 3
T28M Y60D V64S,230 µM,1 of 3
Y52C Y60G G99P,33 µM,2 of 3
G26C S31P G103R,nd,0 of 3
F27G G61K D106I,27 µM,1 of 3
G61L A101G F105S,35 nM,3 of 3
L29Y I34C F59D,nd,0 of 3
I34W F59A D106M,nd,0 of 3
G26S G55T G61T,nd,0 of 3
V50H T58I D106S,nd,0 of 3
T28D L29W G61T,96 nM,3 of 3
G99I G103N T104M,570 nM,3 of 3
S35C T104M,nd,0 of 3
N30D D54K R100P,nd,0 of 3
G26S N30P Y60K,nd,0 of 3
F27V D62L G99R,19 µM,1 of 3
K65Q R100M,61 nM,3 of 3
L29I I51F Y52H,1.5 mM,1 of 3
F27A F59G D106G,nd,0 of 3
G26M D62P,310 nM,3 of 3
F27Y D54T G61P,nd,0 of 3

Excerpt, the final 8 entries:

changes,Kd,detected
N30D D54K R100P,nd,0 of 3
G26S N30P Y60K,nd,0 of 3
F27V D62L G99R,19 µM,1 of 3
K65Q R100M,61 nM,3 of 3
L29I I51F Y52H,1.5 mM,1 of 3
F27A F59G D106G,nd,0 of 3
G26M D62P,310 nM,3 of 3
F27Y D54T G61P,nd,0 of 3

Data: MIT Lincoln Laboratory AlphaSeq set, Engelhart et al. 2022, doi:10.1038/s41597-022-01779-4, as distributed in FLAb.